The text below walks through data of US8124598B2, “7-keto DHEA for psychiatric use” (priority 2006, dated 2012).

In data set [1] the test system is patients with treatment-resistant PTSD, panic disorder, anxiety, depression and other conditions. The data set can be described thus: Eight case reports: 7-keto DHEA in treatment-resistant patients (Example 3). It counts as in vivo, human. The conditions noted are these: Patient 8, chemobrain and CFS/Fibromyalgia after breast cancer treatment; 50 mg/day. The source says: 7-Keto DHEA for Healing Treatment-Resistant Posttraumatic Stress Disorder, Panic Disorder, Anxiety, Depression and Other Conditions in Male and Female Patients

The next data set has as its system healthy male volunteers. The note with it: normal healthy men, doses up to 200 mg/d for 4 weeks; cited from earlier work.

Regarding `CC(=O)OC1CC[C@@]2(C)C(=CC(=O)[C@@H]3[C@@H]2CC[C@]2(C)C(=O)CC[C@@H]32)C1` (some centres unmarked) [7-keto DHEA, 3-acetyl-7-oxo-dehydroepiandrosterone], the clinical response entry in data set [1] is “significant improvement”. The safety and tolerability entry in the data set with healthy male volunteers was “safe and well tolerated”.
